Test results as given in publication PMC7610391, “Photocatalytic proximity labelling of MCL-1 by a BH3 ligand” (Communications chemistry, 2019).

Protein sequences, listed by entry. Tags and fused reporters are not part of them. Residues count along the entry.
UniProt Q07820, 172-327: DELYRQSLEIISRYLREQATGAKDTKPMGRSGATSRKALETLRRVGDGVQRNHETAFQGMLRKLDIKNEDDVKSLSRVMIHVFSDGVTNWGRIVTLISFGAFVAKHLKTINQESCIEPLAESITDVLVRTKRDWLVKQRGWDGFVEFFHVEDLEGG

Target: T1, MCL-1/FITC-NOXA-B interaction (Homo sapiens, UniProt Q07820)
T1 construct: Recombinant MCL-1_172–327 was expressed and purified as published previously; made in house
Assay: Fluorescence anisotropy competition, MCL-1/FITC-NOXA-B
Format: biochemical

SMILES: CC[C@H](C)[C@H](NC(=O)[C@H](CCCNC(=N)N)NC(=O)[C@H](CCCNC(=N)N)NC(=O)[C@H](CC(C)C)NC(=O)[C@H](CCC(N)=O)NC(=O)[C@H](C)NC(=O)[C@H](C)NC(C)=O)C(=O)NCC(=O)N[C@@H](CC(=O)O)C(=O)N[C@@H](CCCCN)C(=O)N[C@H](C(=O)N[C@@H](CC(N)=O)C(=O)N[C@@H](CC(C)C)C(=O)N[C@@H](CCCNC(=N)N)C(=O)N[C@@H](CCC(N)=O)C(=O)N[C@@H](CCCCN)C(=O)N[C@@H](CC(C)C)C(=O)N[C@@H](CC(C)C)C(=O)N[C@@H](CC(N)=O)C(N)=O)C(C)C [compound 5]
- IC50: 2070 ± 334 nM
